From patent US12577229B2, “Substituted {5-methoxy-6-[(5-methoxypyridin-2-yl)methoxy]pyridin-3-yl} methyl compounds as CSF-1R inhibitors” (Eli Lilly and Company, priority 2020, dated 2026)

Chains of the proteins cited; added tags and fusions are not shown. Residues count along the entry.
UniProt P07333, 20-972: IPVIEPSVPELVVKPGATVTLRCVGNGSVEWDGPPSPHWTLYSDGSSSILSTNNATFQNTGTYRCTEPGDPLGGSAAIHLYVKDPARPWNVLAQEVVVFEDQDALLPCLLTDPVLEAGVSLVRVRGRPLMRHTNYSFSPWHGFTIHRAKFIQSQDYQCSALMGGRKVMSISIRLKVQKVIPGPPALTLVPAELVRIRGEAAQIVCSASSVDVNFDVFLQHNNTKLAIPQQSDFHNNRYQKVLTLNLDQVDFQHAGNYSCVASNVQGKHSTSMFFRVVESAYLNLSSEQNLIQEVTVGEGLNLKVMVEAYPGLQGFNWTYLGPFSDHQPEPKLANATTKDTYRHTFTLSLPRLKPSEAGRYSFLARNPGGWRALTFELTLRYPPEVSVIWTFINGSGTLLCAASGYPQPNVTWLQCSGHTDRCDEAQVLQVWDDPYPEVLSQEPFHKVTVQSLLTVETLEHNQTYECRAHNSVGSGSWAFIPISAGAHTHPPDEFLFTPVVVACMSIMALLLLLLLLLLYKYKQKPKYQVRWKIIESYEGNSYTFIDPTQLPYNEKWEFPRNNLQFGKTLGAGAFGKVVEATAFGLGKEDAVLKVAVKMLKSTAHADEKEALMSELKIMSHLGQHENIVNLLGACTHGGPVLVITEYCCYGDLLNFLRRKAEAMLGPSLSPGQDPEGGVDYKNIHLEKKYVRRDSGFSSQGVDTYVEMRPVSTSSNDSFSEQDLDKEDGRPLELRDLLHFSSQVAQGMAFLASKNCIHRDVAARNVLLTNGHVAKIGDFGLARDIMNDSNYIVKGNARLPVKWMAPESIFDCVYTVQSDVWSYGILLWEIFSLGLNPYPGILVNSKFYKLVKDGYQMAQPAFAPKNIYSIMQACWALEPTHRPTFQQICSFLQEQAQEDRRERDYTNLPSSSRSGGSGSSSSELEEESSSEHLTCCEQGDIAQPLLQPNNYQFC
UniProt P07333, 538-972 limits assumed: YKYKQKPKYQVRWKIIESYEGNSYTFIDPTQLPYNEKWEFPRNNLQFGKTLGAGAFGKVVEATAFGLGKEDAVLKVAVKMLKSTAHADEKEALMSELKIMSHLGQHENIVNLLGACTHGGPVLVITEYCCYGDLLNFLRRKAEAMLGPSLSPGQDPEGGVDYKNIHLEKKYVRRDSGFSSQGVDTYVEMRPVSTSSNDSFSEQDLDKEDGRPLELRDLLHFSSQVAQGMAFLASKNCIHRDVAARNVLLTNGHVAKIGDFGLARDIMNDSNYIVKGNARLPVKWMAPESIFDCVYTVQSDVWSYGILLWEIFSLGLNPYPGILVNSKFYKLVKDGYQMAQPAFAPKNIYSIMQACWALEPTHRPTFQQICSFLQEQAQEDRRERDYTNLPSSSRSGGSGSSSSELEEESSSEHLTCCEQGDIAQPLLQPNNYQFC

Key:
CSF1R = CSF1R (Homo sapiens, UniProt P07333); experiment: biochemical
Description: (§1) DiscoverX® KINOMEscan™ In Vitro Kinase Competition Binding Assay
(§2) Compound activity (% binding) is monitored by measuring the amount of kinase captured in test versus control samples by using a qPCR method that detects the associated DNA label. The binding activity is converted to % inhibition and an IC50 value is determined for CSF-1R fold-selectivity assessment.
(§3) Assays to monitor binding to a 468-kinase panel are conducted at DiscoverX® Corporation (Fremont, CA). Test compound is provided as a 10 mM stock in 100% DMSO and evaluated at […] final concentrations. Kinases are tagged with DNA for qPCR detection. Streptavidin-coated magnetic beads are treated with biotinylated small molecule ligands for 30 minutes at room temperature to generate affinity resins for kinase assays. The liganded beads are blocked with excess biotin and washed with blocking buffer (Pierce SeaBlock, 1% BSA, 0.05% Tween 20 and 1 mM DTT) to remove unbound ligand and to reduce nonspecific binding. […] Test compound is prepared as a 40×stock in 100% DMSO and directly diluted into the assay. […] The kinase concentration in the eluates is measured by qPCR. […]
(§4) The percent inhibition values, and the 3-point concentration response data are subsequently determined and analyzed with NGR software, and non-standard IC50 values are calculated from the resulting curve fit. […]

CSF1R autoinhibited = CSF1R autoinhibited (Homo sapiens, UniProt P07333); experiment: biochemical
Description: as §1, §2, §3, §4

COc1ccc(COc2ncc(Cc3ccnc(-c4cnn(C)c4)n3)cc2OC)nc1 [Example 1, 4-({5-Methoxy-6-[(5-methoxypyridin-2-yl)methoxy]pyridin-3-yl}methyl)-2-(1-methyl-1H-pyrazol-4-yl)pyrimidine]
inhibition at 2 µM (CSF1R): 99% | inhibition at 2 µM (CSF1R autoinhibited): 98.9%
